Biological target: P. falciparum Rh5 (Rh5 – basigin interaction) (Plasmodium falciparum, UniProt Q8IFM5)
Format: binding
Details: highest concentration tested 50 μM

Protein sequences, listed by entry. Tags and fused reporters are not part of them. Residues count along the entry.
UniProt Q8IFM5, 24-526: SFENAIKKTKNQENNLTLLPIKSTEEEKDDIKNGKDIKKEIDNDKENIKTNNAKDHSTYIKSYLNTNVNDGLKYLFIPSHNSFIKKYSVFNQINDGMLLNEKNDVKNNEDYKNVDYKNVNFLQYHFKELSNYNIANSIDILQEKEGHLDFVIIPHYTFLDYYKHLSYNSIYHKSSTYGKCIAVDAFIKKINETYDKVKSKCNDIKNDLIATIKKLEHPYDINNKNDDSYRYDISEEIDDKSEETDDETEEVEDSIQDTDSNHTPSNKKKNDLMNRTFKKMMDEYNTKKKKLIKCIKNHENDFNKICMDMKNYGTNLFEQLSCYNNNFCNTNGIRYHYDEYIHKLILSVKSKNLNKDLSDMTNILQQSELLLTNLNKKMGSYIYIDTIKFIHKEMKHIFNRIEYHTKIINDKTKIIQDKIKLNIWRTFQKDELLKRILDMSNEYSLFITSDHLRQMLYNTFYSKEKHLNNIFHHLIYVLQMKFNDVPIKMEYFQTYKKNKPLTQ

CC(C)(O)c1ccccc1CC[C@@H](SCC1(CC(=O)O)CC1)c1cccc(/C=C/c2ccc3ccc(Cl)cc3n2)c1 [Montelukast, montelukast, reference compound]
Rh5 inhibitory activity in the AlphaScreen assay: did not show Rh5 inhibitory activity

— paper PMC7645381, “Development and application of a high-throughput screening assay for identification of small molecule inhibitors of the P. falciparum reticulocyte binding-like homologue 5 protein” (International Journal for Parasitology: Drugs and Drug …, 2020)
